Laboratory results: patent US20210052616A1, “ANTHRACYCLINE ENCAPSULATED WITH A POLYSACCHARIDE FOR USE IN THE TREATMENT OF TUMOURS” (NANOVELOS S.A, priority 2018, published 2021)

Tests used:
Format in all cases: cell-based
ACHN = experiment: MTT cytotoxicity test, ACHN; conditions: 24 h
PANC-1 = experiment: MTT cytotoxicity test, PANC-1; conditions: 24 h
A549 = experiment: MTT cytotoxicity test, A549; conditions: 24 h
Protocol: (§1) The subject of the study was to determine the cytotoxicity of a combination of anthracyclines encapsulated with a polysaccharide EPI, DAU, DOX, IDA on cell lines. Toxicity was assessed using a quantitative method based on the colourimetric technique (MTT) [see literature item 203]. In this test, […] present in the cells converts the soluble tetrazolium salt (3-4,5-dimethylthiazol-2-yl)-2,5-diphenyltetrazolium bromide) into a reduced form. The reaction yields water-insoluble purple crystalline formazan. The number of crystals formed depends on the enzyme activity so that it is directly proportional to the number of viable cells in the sample. […] The change in colour intensity is measured by spectrophotometry at 570 nm wavelength. […]
(§2) After reaching 85-90% confluence, the cells were trypsinised using a 0.25% trypsin solution. […] After shaking the plate on the shaker for 2 minutes, the results for 570 nm wavelength were read (reference value of 650 nm). The mean value of absorbance read OD570 of the cells not exposed to a toxic agent (control) should be above 0.7 [see literature item 206].
(§3) A decrease in the number of viable cells causes a decrease in metabolic activity in the sample. This reduction directly correlates with the amount of blue and purple formazan formed, monitored basing on the optical density at 570 nm. […]

AU565 = experiment: MTT cytotoxicity test, AU565; conditions: AU565, 1.25E+06 ng/ml NPs (pure drug equimolar), 24 h
Protocol: as §1, §2, §3

OVCAR-3 = experiment: MTT cytotoxicity test, OVCAR-3; conditions: 24 h
Protocol: as §1, §2, §3

| Compound | Average viability (ACHN; 2.50E+06 ng/ml NPs (pure drug equimolar)) [%] | Average viability (ACHN; 5.00E+03 ng/ml NPs (pure drug equimolar)) [%] | Average viability (PANC-1; PANC1, 1.25E+04 ng/ml NPs (pure drug equimolar)) [%] | Average viability (A549; A549, 5.00E+03 ng/ml NPs (pure drug equimolar)) [%] | Average viability (A549; A549, 5.00E+05 ng/ml NPs (pure drug equimolar)) [%] | Average viability (AU565) [%] | Average viability (OVCAR-3; OVCAR3, 1.25E+04 ng/ml NPs (pure drug equimolar)) [%] | Average viability (OVCAR-3; OVCAR3, 5.00E+03 ng/ml NPs (pure drug equimolar)) [%] | Average viability (PANC-1; PANC1, 5.00E+04 ng/ml NPs (pure drug equimolar)) [%] |
| --- | --- | --- | --- | --- | --- | --- | --- | --- | --- |
| COc1cccc2c1C(=O)c1c(O)c3c(c(O)c1C2=O)C[C@@](O)(C(C)=O)C[C@@H]3O[C@H]1C[C@H](N)[C@H](O)[C@H](C)O1 [Dau, daunorubicin] | 62.65 | 62.65 | 93.89 |  |  |  |  |  |  |
| COc1cccc2c1C(=O)c1c(O)c3c(c(O)c1C2=O)C[C@@](O)(C(=O)CO)C[C@@H]3O[C@H]1C[C@H](N)[C@@H](O)[C@H](C)O1 [Epi, epirubicin] |  |  |  | 103.44 | 62.796 | 1.912 | 102.184 | 104.596 | 89.898 |
